For this experiment, the target named is Butyrylcholinesterase (Equus caballus, UniProt Q9N1N9). As to the kind of experiment: Inhibition of equine BuChE after 120 mins by Ellman's method. (In Ellman's method for cholinesterases, released thiocholine reacts with DTNB.)

Amino acid sequences for entries named in this document (tags omitted).
UniProt Q9N1N9, whole entry: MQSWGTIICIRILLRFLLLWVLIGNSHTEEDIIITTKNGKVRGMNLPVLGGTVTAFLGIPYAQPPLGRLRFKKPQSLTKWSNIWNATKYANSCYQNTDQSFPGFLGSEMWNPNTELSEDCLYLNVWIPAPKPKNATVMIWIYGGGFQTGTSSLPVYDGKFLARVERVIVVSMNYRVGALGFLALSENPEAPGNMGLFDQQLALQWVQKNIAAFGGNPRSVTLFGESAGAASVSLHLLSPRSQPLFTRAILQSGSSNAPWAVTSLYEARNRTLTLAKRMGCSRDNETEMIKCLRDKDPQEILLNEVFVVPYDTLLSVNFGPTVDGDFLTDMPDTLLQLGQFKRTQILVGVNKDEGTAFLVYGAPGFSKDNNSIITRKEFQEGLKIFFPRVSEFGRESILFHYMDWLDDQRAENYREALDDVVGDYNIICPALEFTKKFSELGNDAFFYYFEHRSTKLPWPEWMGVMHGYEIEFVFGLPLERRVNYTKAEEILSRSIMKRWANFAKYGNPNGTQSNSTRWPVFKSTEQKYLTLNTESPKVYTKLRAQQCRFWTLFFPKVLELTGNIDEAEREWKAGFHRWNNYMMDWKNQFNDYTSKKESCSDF

SMILES strings stand for the structures.

As usually defined, the IC50 is the concentration at which inhibition is half-maximal. Low values mean greater potency, high ones weaker potency.

Take `CCN(C)C(=O)Oc1cccc([C@H](C)N(C)C)c1` [RIVASTIGMINE]: the IC50 was 160 nM. In other words, the sub-micromolar range.

The record behind these values is ChEMBL document CHEMBL2177019, “Carbamate derivatives of indolines as cholinesterase inhibitors and antioxidants for the treatment of Alzheimer's disease” (J Med Chem, 2012).
